Source: PubChem
TrxR1 substrate: substrates of rat thioredoxin reductase 1 | Potency, µM (top dose mostly 114 µM), for inactives: at the highest dose activity change, negative = substrate turnover | actives 0.01% (n = 390,000) | purified TrxR1 substrate turnover, NADPH consumption readout; also: potency is read from the fitted curve at half-maximal effect; % is scaled to controls: 0 for no effect and ±100 for the full control effect; nearly all actives have a fitted effect of over 50% in size
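Rat TrxR1, dispensed at 90 nM, was prereduced with 400 uM NADPH (final) for 5 min at ~22 deg C, then incubated with compound 15 min before 400 uM selenite. A first-read NADPH fluorescence drop versus no-compound background flagged substrates.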
Apoferritin bind: candidate novel general anesthetic via apoferritin binding; P02791; apoferritin/1-aminoanthracene competitive binding, fluorescence; Potency, µM (highest dose often 77.5 µM), inactives show top-dose activity change, negative = displacement, hits mostly inhibitors; actives 0.074% (n = 350,000); AID 485281; also: potency is read from the fitted curve at half-maximal effect; % is scaled to controls: 0 for no effect and ±100 for the full control effect; nearly all actives have a fitted effect of over 20% in size
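Concentration-response curves derived by four-parameter Hill fitting of normalized fluorescence, where compounds displaced 1-AMA from 10 uM horse apoferritin following a brief 10 min room-temperature incubation; propofol titration acted as positive control.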
miR-21 reporter: miR-21 reporter, rising signal | HeLa miR-21 FLuc reporter, luciferase, 48 h | Potency, µM (top dose mostly 38.3 µM), inactives show at the top dose reporter change, positive = more light | 340,000 tested, under 10 active | AID 2288; active = well fitted rising curve with a large enough effect; inconclusive = small, poorly fitted or top-dose-only effect; inactive = no such curve, though single readings can be large or run the other way;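 further: % of control where 0% means no effect; miR-21 action dims this reporter so a rising signal means less miR-21 action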
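Using DMEM plus 10% FBS, HeLa miR-21-FLuc cells are incubated with test compounds (final up to about 40uM) for 48 hours; firefly luciferase signal is then imaged following reagent-mediated lysis.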
TrxR1 inh: blocks rat thioredoxin reductase 1; recombinant rTrxR1, NADPH fluorescence consumption, selenite substrate; actives 1% (n = 390,000); Potency, µM (series often up to 114 µM), inactives show at the top dose activity change, negative = inhibition, usual class: inhibitors; O89049; also: potency is read from the fitted curve at half-maximal effect; % is scaled to controls: 0 for no effect and ±100 for the full control effect; nearly all actives have a fitted effect of over 65% in size
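Rat TrxR1 (90 nM in the dispensed reagent) was pre-reduced with 400 uM NADPH for 5 min at room temperature, then incubated with compound for 15 min. After 400 uM selenite was added, NADPH fluorescence (Ex 340/Em 450 nm) was followed for 8 min.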
ClpP mod: qHTS Assay for Activators of ClpP; purified B. subtilis ClpP, FRET peptide cleavage, 20 min; Potency, µM (top dose mostly 57.5 µM), for the others: at the top dose activity change, negative = active; actives 1.9% (n = 340,000); AID 651965, 2013; active = well fitted falling curve with a large enough effect; inconclusive = small, poorly fitted or top-dose-only effect; inactive = no such curve, though single readings can be large or run the other way; also: potency is read from the fitted curve at half-maximal effect; the source files actives as falling curves though it sought activators and does not explain the sign; nearly all actives have a fitted effect of over 65% in size
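Purified B. subtilis ClpP, 10 microg/mL final in Tris/HCl pH8 with KCl, BSA, glycerol and Tween-20, cleaved an Abz/nitrotyrosine-quenched decapeptide. Fluorescence (ex 320, em 430) was read at 0 and 20 min at room temperature. Delta was normalized to 5.8 microM ADEP and DMSO/no-enzyme controls.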
ClpP inh valid: inhibits B. subtilis ClpP protease, hit validation | Potency, µM (top dose mostly 57.5 µM), for inactives: top-dose activity change, negative = inhibition, most hits filed as inhibitors | AID 743245 | purified B. subtilis ClpP, FRET-FV substrate cleavage, 20 min | shares compounds with ClpP mod | actives 40% (n = 470); also: potency is read from the fitted curve at half-maximal effect; % is scaled to controls: 0 for no effect and ±100 for the full control effect; nearly all actives have a fitted effect of over 70% in size
* = called active by the depositor; u = inconclusive; x = no result given; [ ] = dose if it differs, or a comment. An excerpt weighted towards active compounds, which were near 2.5% of everything screened. Unless noted, calls follow the shape of the dose curve; as a rule, active = well fitted curve in the direction sought with a large enough effect; inconclusive = small, poorly fitted or top-dose-only effect, or another doubt; inactive = no such curve, though single readings can be large; an effect the other way counts as inactive or inconclusive.

SMILES	TrxR1 substrate	Apoferritin bind	miR-21 reporter	TrxR1 inh	ClpP mod	ClpP inh valid
O=C(c1ccccn1)N(Cc1ccco1)C1(C(=O)NC2CCCC2)CCCCC1	7%[57.1 µM]	-4%	2%	10%[57.1 µM]	2.5µM*	0%
O=C(Nc1nnc(-c2ccncc2)s1)C1CCCO1 (stereo not drawn)	99%	0%	-18%	-20%	6.3µM*	12µM*
CC(=O)Nc1ccc(Nc2ncnc3c2c(-c2ccccc2)cn3-c2ccc(C)c(Cl)c2)cc1	12%[57.1 µM]	u	14%	23%[57.1 µM]	u	x
O=C(Nc1cccc(Cl)c1Cl)c1cc(S(=O)(=O)NCc2ccc3c(c2)OCO3)ccc1F	2%[57.1 µM]	0%	-4%	14%[57.1 µM]	56%	u
O=C(Cc1cccc(NC(=O)C2CCCN(C(=O)C3CC3)C2)c1)Nc1ccc(C(=O)N2CCCCC2)cc1 (stereo not drawn)	-5%	x	x	8%	1%	x
Cc1cccc(CC(=O)Nc2ccc(C(=O)N3CCCCC3)cc2)c1	-4%	u	-21%	2%	3.2µM*	0%
CCOc1cc(CNC2CCCC2)ccc1OCc1ccccc1Cl	0%	-24%	4%	22%	2%	x
CCOc1cc(C2NN=C(c3ccccc3)S2)ccc1OCc1ccccc1Cl (stereo not drawn)	27%	-17%	-60%	11%	3.5µM*	u
Cc1ccc(C)c(NC(=O)Cn2c(=O)ccc3cc(S(=O)(=O)N4CCCC4)ccc32)c1	3%[57.1 µM]	-3%	5%	34%[57.1 µM]	3%	x
Cc1nc2ccc([N+](=O)[O-])cc2c(=O)n1Cc1ccccc1Br	6%[57.1 µM]	-9%	-2%	15%[57.1 µM]	41%	-1%
c1ccc(-c2ccc(-c3csnn3)cc2)cc1	-11%	-10%	-39%	21%[57.1 µM]	88%	-1%
O=S(=O)(Nc1ccccc1)c1ccc(-c2csnn2)cc1	-18%[57.1 µM]	0%	7%	13%[57.1 µM]	x	x
Cc1ccc(-c2cc3nc(-c4ccccc4)cc(N4CCOCC4)n3n2)cc1	58%[57.1 µM]	-6%	-29%	21%[57.1 µM]	8.9µM*	34µM*
COc1ccc(-c2cc3nc(-c4ccccc4)cc(N4CCC5(CC4)OCCO5)n3n2)cc1	365%[57.1 µM]	7%	0%	481%[57.1 µM]	7.1µM*	4.9µM*
O=c1n(Cc2ccc(Cl)cc2)c2sc3c(c2c2ncnn12)CCCC3	6%[57.1 µM]	-9%	-4%	11%[57.1 µM]	2.8µM*	-3%
COc1ccc(OCC(=O)N(Cc2cccc(OC)c2)C2CCS(=O)(=O)C2)cc1 (stereo not drawn)	4%	-8%	-3%	15%	-1%	x
CC(C)(C)OC(=O)NC(NC(=O)OCC1c2ccccc2-c2ccccc21)C(=O)O (stereo not drawn)	x	-4%	x	x	x	x
Cc1ccc(NC(=O)c2ccc(-c3ccccc3)s2)cc1	9%	-2%	-60%	4%	47%	-9%
Cc1ccc(S(=O)(=O)N2CCN(C(=O)CN3CCCSc4ccccc43)CC2)cc1	-7%	x	x	6%	40%	-3%
N#Cc1ccccc1S(=O)(=O)N1CCN(C(=O)CN2CCCSc3ccccc32)CC1	2%	x	x	-1%	0%	x
CCc1ccc(CNC(=O)Cn2nc(-c3ccccc3)ccc2=O)cc1	7%	11µM*	-6%	5%[57.1 µM]	4µM*	-2%
O=C(O)Cn1nc(-c2ccccc2)ccc1=O	-3%[57.1 µM]	0%	-2%	5%	2%	x
Cc1ccc2[nH]c(=O)c(CN(Cc3ccc4c(c3)OCO4)Cc3nnnn3C3CCCC3)cc2c1	0%	u	1%	-10%	81%	-19%
Cc1c(C(=O)N2CCOCC2)sc2ncn(CC(=O)N3CCC(C)CC3)c(=O)c12	-12%	0%	-11%	-8%	3.2µM*	-1%
Cc1c(C(=O)N2CCN(c3ccc([N+](=O)[O-])cc3)CC2)sc2ncn(CC(=O)N3CCOCC3)c(=O)c12	-9%	-13%	1%	-13%	x	x

5 structures already listed, sorted by number of heavy atoms, falling:
SMILES	TrxR1 substrate	Apoferritin bind	miR-21 reporter	TrxR1 inh	ClpP mod	ClpP inh valid
CC(=O)Nc1ccc(Nc2ncnc3c2c(-c2ccccc2)cn3-c2ccc(C)c(Cl)c2)cc1	12%[57.1 µM]	u	14%	23%[57.1 µM]	u	x
O=C(Nc1cccc(Cl)c1Cl)c1cc(S(=O)(=O)NCc2ccc3c(c2)OCO3)ccc1F	2%[57.1 µM]	0%	-4%	14%[57.1 µM]	56%	u
Cc1ccc(C)c(NC(=O)Cn2c(=O)ccc3cc(S(=O)(=O)N4CCCC4)ccc32)c1	3%[57.1 µM]	-3%	5%	34%[57.1 µM]	3%	x
Cc1cccc(CC(=O)Nc2ccc(C(=O)N3CCCCC3)cc2)c1	-4%	u	-21%	2%	3.2µM*	0%
Cc1ccc(NC(=O)c2ccc(-c3ccccc3)s2)cc1	9%	-2%	-60%	4%	47%	-9%

New compounds follow
SMILES	TrxR1 substrate	Apoferritin bind	miR-21 reporter	TrxR1 inh	ClpP mod	ClpP inh valid
Cc1ccc(C)c(OCCCC(=O)NC2CCCCC2)c1	-5%[57.1 µM]	-7%	-8%	8%[57.1 µM]	3.2µM*	0%
COc1cccc(CSc2nc3n(n2)C(c2ccccc2C)C(C(=O)Nc2ccccc2OC)=C(C)N3)c1 (stereo not drawn)	-12%[57.1 µM]	-12%	12%	-4%[57.1 µM]	u	x
COc1ccc(NC(=O)C2=C(C)Nc3nc(SCc4ccc(C)cc4C)nn3C2c2cccc(OC)c2OC)cc1 (stereo not drawn)	7%[57.1 µM]	-3%	2%	16%[57.1 µM]	81%	-19%
CCOC(=O)C1CCN(c2ncnc3c2oc2ccccc23)CC1	8%[57.1 µM]	-18%	-17%	18%	-2%	x
CCOC(=O)C1CCCN(c2ncnc3c2oc2ccccc23)C1 (stereo not drawn)	-3%	-16%	-60%	-12%	352%	-2%
O=S(=O)(Nc1cccc(-c2cn3cccnc3n2)c1)c1ccc(Cl)cc1	101%	-3%	-10%	-20%	7.1µM*	24µM*
NC(=O)c1ccccc1NS(=O)(=O)Cc1ccccc1	93%	-8%	-3%	-24%	7.9µM*	22µM*
COc1ccc(C(=O)N2CCCc3ccccc32)cc1	6%	0%	-19%	19%	-3%	x
COC(=O)CN1CCN(C(=O)c2ccc(F)cc2)c2ccccc2C1	6%[57.1 µM]	-7%	-3%	2%[57.1 µM]	176%	1%
Cc1ccc(CNC(=O)CCN2C(=O)C(C)Oc3ccc(C)cc32)cc1 (stereo not drawn)	-5%	36%	-1%	0%	-2%	x
COc1ccc(S(=O)(=O)N2CCCC2C(=O)Nc2nc3c(s2)CCCC3)cc1 (stereo not drawn)	-8%	-8%	8%	10%[57.1 µM]	6.3µM*	0%
Fc1cc2nc(-c3ccncc3)[nH]c2cc1F	291%	-11%	-65%	8%	3.2µM*	17µM*
COc1cccc2c1cc1c(=O)n(CC(=O)NCc3ccco3)nc(C)n12	15%	7%	-1%	9%	3.5µM*	u
CCCN1CCN(CCCNC(=O)Cn2nc(C)n3c(cc4c(OC)cccc43)c2=O)CC1	52%	2%	-3%	13%	4.5µM*	3.9µM*
Cc1ccc(Cc2cnc(NC(=O)c3ccc4c(c3)CC(c3ccccc3)OC4=O)s2)cc1 (stereo not drawn)	5%	-4%	-2%	20%	0%	x
Cc1ccc(NC(=O)COC(=O)COc2ccc3ccc(=O)oc3c2)cc1[N+](=O)[O-]	13%	x	x	5%	104%	19µM*
Cc1cc(=O)oc2cc(OCC(=O)OCC(=O)NCc3ccc4c(c3)OCO4)ccc12	27%	u	1%	12%	199%	-26%
Cc1cc(=O)oc2cc(OCC(=O)OCC(=O)Nc3ccccc3F)ccc12	81%	u	1%	21%[57.1 µM]	x	x
